{"source": "patent US12708677B2", "about": "“Contrast agents, methods for preparing contrast agents, and methods of imaging” (Georgia State University Research Foundation, Inc., priority 2008, dated 2026)", "origin": "cited, not measured here", "details": "B0 0.47 T, based on references; cited from earlier work", "data": [{"substance": "Poly-lysine", "values": [{"measurement": "r1", "result": 13, "unit": "mM⁻¹ s⁻¹"}]}]}
